Laboratory results from patent publication US11685720B2, “Salt forms of URAT-1 inhibitors” (INVENTISBIO CO., LTD., priority 2018, dated 2023).

Assay: Solubility test, suspension filtered and filtrate analyzed by HPLC
Format: physicochemical
Details: 25° C.
Protocol: Weighed 5 mg of a sample solid (1-Ca salt or Compound 1) into a 8 mL of glass vial, and then added 1 mL of a pH 6.8 buffer solution or water. The suspension was centrifuged under 200 rpm at 25° C., and 0.3 mL to 0.5 mL of […]. At each time point, the suspension was filtered to remove solid, and the filtrate was analyzed by HPLC.
The solubilities of the three salts and the Compound 1 were studied in pH 6.8 buffer and water, and the data was summarized in Table 5.

Q: For “calcium 2-(1-(((3-(4-cyanophenyl)pyridin-4-yl)thio)methyl)cyclopropyl)acetate [1-Ca salt]”, which Solubility (pH 6.8 buffer, 0.5 h) is on record?
A: 264 µg/mL

Q: What about the Solubility (pH 6.8 buffer, 2 h) of the same substance?
A: 279 µg/mL

Q: What about the Solubility (water, 0.5 h) of the same substance?
A: 1657 µg/mL

Q: What about the Solubility (water, 2 h) of the same substance?
A: 1625 µg/mL
